Test results from patent publication US9707274B2, “Methods for preventing and treating post-traumatic stress disorder (PTSD)” (priority 2007, dated 2017).
Values joined by “and” are separate entries in the source; they are usually repeats but may differ in a detail not shown here. Equal values may be shown once. Read-outs that look alike come from different tables or passages of the source.

Settings: for Concentration of KTP, Blood / Concentration of KTP, Caudate/Putamen / Concentration of KTP, Cerebellum / Concentration of KTP, Cerebrospinal Fluid / Concentration of KTP, Frontal Cortex / Concentration of KTP, Heart / Concentration of KTP, Hippocampus / Concentration of KTP, Hypothalamus / Concentration of KTP, Kidney / Concentration of KTP, Liver / Concentration of KTP, Medulla / Concentration of KTP, Muscle / Concentration of KTP, Olfactory Bulbs / Concentration of KTP, Olfactory Epithelium / Concentration of KTP, Parietal Cortex / Concentration of KTP, Pons / Concentration of KTP, Respiratory Epithelium / Concentration of KTP, Septal Nucleus / Concentration of KTP, Spinal Cord Cervical / Concentration of KTP, Spinal Cord Lumbar / Concentration of KTP, Spinal Cord Thoracic / Concentration of KTP, Spleen / Concentration of KTP, Superficial Cervical Nodes / Concentration of KTP, Thalamus / Concentration of KTP, Ventral Meninges / KTP targeting, increase vs intranasal KTP control, dorsal meninges / KTP targeting, increase vs intranasal KTP control, ventral meninges / KTP targeting, increase vs intranasal KTP control, cervical lymph nodes / KTP targeting, increase vs intranasal KTP control, superficial nodes / Concentration of KTP, Anterior Olfactory Nucleus / Concentration of KTP, Carotid Artery / Concentration of KTP, Deep Cervical Nodes / Concentration of KTP, Dorsal Meninges / Concentration of KTP, Spinal Meninges / Concentration of KTP, Trigeminal Nerve: 30 min; for KTP targeting, increase vs intranasal KTP control, cervical lymph nodes / KTP targeting, increase vs intranasal KTP control, superficial nodes: data not shown
[1] = intranasal KTP control (no PHE), rats

Substance: L-tyrosine-D-arginine [KTP]
- Reduction of KTP blood concentration at 30 minutes (intranasal KTP + 1% PHE vs intranasal KTP control): 56%
- Concentration of KTP, Blood (intranasal KTP + 1% PHE, rats): 5.1 nM and 5.12 ± 0.47 nM
- Concentration of KTP, Caudate/Putamen (intranasal KTP + 1% PHE, rats): 0.88 ± 0.13 nM
- Concentration of KTP, Cerebellum (intranasal KTP + 1% PHE, rats): 0.87 ± 0.12 nM
- Concentration of KTP, Cerebrospinal Fluid (intranasal KTP + 1% PHE, rats): 0.3 nM
- Concentration of KTP, Frontal Cortex (intranasal KTP + 1% PHE, rats): 1.34 ± 0.20 nM
- Concentration of KTP, Heart (intranasal KTP + 1% PHE, rats): 0.81 ± 0.08 nM
- Concentration of KTP, Hippocampus (intranasal KTP + 1% PHE, rats): 0.89 ± 0.12 nM
- Concentration of KTP, Hypothalamus (intranasal KTP + 1% PHE, rats): 1.66 ± 0.26 nM
- Concentration of KTP, Kidney (intranasal KTP + 1% PHE, rats): 7.19 ± 1.90 nM
- Concentration of KTP, Liver (intranasal KTP + 1% PHE, rats): 1.70 ± 0.23 nM
- Concentration of KTP, Medulla (intranasal KTP + 1% PHE, rats): 0.89 ± 0.14 nM
- Concentration of KTP, Muscle (intranasal KTP + 1% PHE, rats): 1.42 ± 0.23 nM
- Concentration of KTP, Olfactory Bulbs (intranasal KTP + 1% PHE, rats): 12.85 ± 3.28 nM
- Concentration of KTP, Olfactory Epithelium (intranasal KTP + 1% PHE, rats): 5754 ± 1165 nM
- Concentration of KTP, Parietal Cortex (intranasal KTP + 1% PHE, rats): 1.13 ± 0.16 nM
- Concentration of KTP, Pons (intranasal KTP + 1% PHE, rats): 0.86 ± 0.13 nM
- Concentration of KTP, Respiratory Epithelium (intranasal KTP + 1% PHE, rats): 36853 ± 5734 nM
- Concentration of KTP, Septal Nucleus (intranasal KTP + 1% PHE, rats): 1.24 ± 0.12 nM
- Concentration of KTP, Spinal Cord Cervical (intranasal KTP + 1% PHE, rats): 0.64 ± 0.17 nM
- Concentration of KTP, Spinal Cord Lumbar (intranasal KTP + 1% PHE, rats): 0.46 ± 0.06 nM
- Concentration of KTP, Spinal Cord Thoracic (intranasal KTP + 1% PHE, rats): 0.52 ± 0.10 nM
- Concentration of KTP, Spleen (intranasal KTP + 1% PHE, rats): 1.26 ± 0.14 nM
- Concentration of KTP, Superficial Cervical Nodes (intranasal KTP + 1% PHE, rats): 21 nM and 20.89 ± 3.39 nM
- Concentration of KTP, Thalamus (intranasal KTP + 1% PHE, rats): 0.86 ± 0.11 nM
- Concentration of KTP, Ventral Meninges (intranasal KTP + 1% PHE, rats): 20.45 ± 2.91 nM
- KTP targeting, increase vs intranasal KTP control, dorsal meninges (intranasal KTP + 1% PHE, rats): 2.3 fold
- KTP targeting, increase vs intranasal KTP control, ventral meninges (intranasal KTP + 1% PHE, rats): 3.6 fold
- KTP targeting, increase vs intranasal KTP control, cervical lymph nodes (intranasal KTP + 1% PHE, rats): 3.0 fold
- KTP targeting, increase vs intranasal KTP control, superficial nodes (intranasal KTP + 1% PHE, rats): 5.1 fold
- Reduction of KTP blood concentration at 30 minutes (intranasal KTP + 5% PHE vs intranasal KTP control): 66%
- Concentration of KTP, Anterior Olfactory Nucleus (intranasal KTP + 5% PHE, rats): 2.70 ± 0.42 nM
- Concentration of KTP, Carotid Artery (intranasal KTP + 5% PHE, rats): 165.44 ± 56.57 nM
- Concentration of KTP, Caudate/Putamen (intranasal KTP + 5% PHE, rats): 1.08 ± 0.29 nM
- Concentration of KTP, Cerebellum (intranasal KTP + 5% PHE, rats): 1.37 ± 0.29 nM
- Concentration of KTP, Deep Cervical Nodes (intranasal KTP + 5% PHE, rats): 93.59 ± 12.01 nM
- Concentration of KTP, Dorsal Meninges (intranasal KTP + 5% PHE, rats): 6.43 ± 1.65 nM
- Concentration of KTP, Frontal Cortex (intranasal KTP + 5% PHE, rats): 1.81 ± 0.23 nM
- Concentration of KTP, Heart (intranasal KTP + 5% PHE, rats): 1.15 ± 0.25 nM
- Concentration of KTP, Hippocampus (intranasal KTP + 5% PHE, rats): 0.98 ± 0.20 nM
- Concentration of KTP, Hypothalamus (intranasal KTP + 5% PHE, rats): 3.64 ± 1.31 nM
- Concentration of KTP, Kidney (intranasal KTP + 5% PHE, rats): 7.39 ± 0.98 nM
- Concentration of KTP, Liver (intranasal KTP + 5% PHE, rats): 1.58 ± 0.20 nM
- Concentration of KTP, Medulla (intranasal KTP + 5% PHE, rats): 1.87 ± 0.57 nM
- Concentration of KTP, Muscle (intranasal KTP + 5% PHE, rats): 0.68 ± 0.04 nM
- Concentration of KTP, Olfactory Bulbs (intranasal KTP + 5% PHE, rats): 24.48 ± 4.64 nM
- Concentration of KTP, Olfactory Epithelium (intranasal KTP + 5% PHE, rats): 12492 ± 381 nM
- Concentration of KTP, Parietal Cortex (intranasal KTP + 5% PHE, rats): 1.28 ± 0.22 nM
- Concentration of KTP, Pons (intranasal KTP + 5% PHE, rats): 1.97 ± 0.68 nM
- Concentration of KTP, Respiratory Epithelium (intranasal KTP + 5% PHE, rats): 15908 ± 1702 nM
- Concentration of KTP, Septal Nucleus (intranasal KTP + 5% PHE, rats): 1.27 ± 0.21 nM
- Concentration of KTP, Spinal Cord Cervical (intranasal KTP + 5% PHE, rats): 1.37 ± 0.40 nM
- Concentration of KTP, Spinal Cord Lumbar (intranasal KTP + 5% PHE, rats): 0.45 ± 0.03 nM
- Concentration of KTP, Spinal Cord Thoracic (intranasal KTP + 5% PHE, rats): 0.50 ± 0.07 nM
- Concentration of KTP, Spinal Meninges (intranasal KTP + 5% PHE, rats): 2.88 ± 0.77 nM
- Concentration of KTP, Spleen (intranasal KTP + 5% PHE, rats): 1.49 ± 0.16 nM
- Concentration of KTP, Superficial Cervical Nodes (intranasal KTP + 5% PHE, rats): 13 nM and 13.24 ± 1.32 nM
- Concentration of KTP, Thalamus (intranasal KTP + 5% PHE, rats): 1.49 ± 0.49 nM
- Concentration of KTP, Trigeminal Nerve (intranasal KTP + 5% PHE, rats): 8.63 ± 1.61 nM
- Concentration of KTP, Ventral Meninges (intranasal KTP + 5% PHE, rats): 20.22 ± 4.50 nM
- KTP targeting, increase vs intranasal KTP control, dorsal meninges (intranasal KTP + 5% PHE, rats): 3.2 fold
- KTP targeting, increase vs intranasal KTP control, ventral meninges (intranasal KTP + 5% PHE, rats): 3.4 fold
- KTP targeting, increase vs intranasal KTP control, cervical lymph nodes (intranasal KTP + 5% PHE, rats): 4.8 fold
- KTP targeting, increase vs intranasal KTP control, superficial nodes (intranasal KTP + 5% PHE, rats): 4.6 fold
- Concentration of KTP, Anterior Olfactory Nucleus [1]: 2.42 ± 0.26 nM
- Concentration of KTP, Blood [1]: 11.7 nM and 11.68 ± 1.33 nM
- Concentration of KTP, Carotid Artery [1]: 155.55 ± 77.26 nM
- Concentration of KTP, Caudate/Putamen [1]: 2.13 ± 0.22 nM
- Concentration of KTP, Cerebellum [1]: 2.10 ± 0.09 nM
- Concentration of KTP, Cerebrospinal Fluid [1]: 0.5 nM and 0.49 ± 0.09 nM
- Concentration of KTP, Deep Cervical Nodes [1]: 61.58 ± 18.42 nM
- Concentration of KTP, Dorsal Meninges [1]: 4.34 ± 0.71 nM
- Concentration of KTP, Frontal Cortex [1]: 2.24 ± 0.23 nM
- Concentration of KTP, Heart [1]: 1.46 ± 0.20 nM
- Concentration of KTP, Hippocampus [1]: 1.90 ± 0.20 nM
- Concentration of KTP, Hypothalamus [1]: 2.63 ± 0.25 nM
- Concentration of KTP, Kidney [1]: 49.54 ± 9.46 nM
- Concentration of KTP, Liver [1]: 6.38 ± 1.12 nM
- Concentration of KTP, Medulla [1]: 1.87 ± 0.20 nM
- Concentration of KTP, Muscle [1]: 2.20 ± 0.22 nM
- Concentration of KTP, Olfactory Bulbs [1]: 4.33 ± 0.59 nM
- Concentration of KTP, Olfactory Epithelium [1]: 1988 ± 676 nM
- Concentration of KTP, Parietal Cortex [1]: 2.53 ± 0.12 nM
- Concentration of KTP, Pons [1]: 1.90 ± 0.09 nM
- Concentration of KTP, Respiratory Epithelium [1]: 21419 ± 2564 nM
- Concentration of KTP, Septal Nucleus [1]: 2.09 ± 0.16 nM
- Concentration of KTP, Spinal Cord Cervical [1]: 1.62 ± 0.40 nM
- Concentration of KTP, Spinal Cord Lumbar [1]: 1.20 ± 0.13 nM
- Concentration of KTP, Spinal Cord Thoracic [1]: 1.27 ± 0.24 nM
- Concentration of KTP, Spinal Meninges [1]: 5.59 ± 1.94 nM
- Concentration of KTP, Spleen [1]: 3.58 ± 0.72 nM
- Concentration of KTP, Superficial Cervical Nodes [1]: 6.5 nM and 6.45 ± 0.62 nM
- Concentration of KTP, Thalamus [1]: 1.83 ± 0.19 nM
- Concentration of KTP, Trigeminal Nerve [1]: 12.54 ± 3.33 nM
- Concentration of KTP, Ventral Meninges [1]: 16.66 ± 3.20 nM
- Peak blood concentration of KTP (intravenous infusion over 14 minutes, peak at 10 minutes, rats): 83 nM
- KTP blood concentration, intravenous greater than intranasal (intravenous vs intranasal, rats): 5 fold
